Test [1] addresses T1, Cannabinoid receptor 1 (Homo sapiens, UniProt P21554). In words: Negative allosteric modulator activity at human CB1R expressed in CHO-K1 cells assessed as inhibition of CP55,940-induced beta-arrestin recruitment preincubated for 30 mins followed by CP55,940 addition measured for 90 mins by PathHunter assay. In kind it is cell-based.
The target of test [2] is T1, Cannabinoid receptor 1. Put plainly: Negative allosteric modulator activity at human CB1R expressed in CHO-K1 cells assessed as effect on CP55,940-induced inhibition of forskolin-induced cAMP accumulation preincubated for 30 mins followed by CP55,940 addition measured for 30 mins by HitHunter assay. In kind it is functional, cell-based.

By UniProt entry, the sequences of proteins in these tests, tags left out.
UniProt P21554, whole entry: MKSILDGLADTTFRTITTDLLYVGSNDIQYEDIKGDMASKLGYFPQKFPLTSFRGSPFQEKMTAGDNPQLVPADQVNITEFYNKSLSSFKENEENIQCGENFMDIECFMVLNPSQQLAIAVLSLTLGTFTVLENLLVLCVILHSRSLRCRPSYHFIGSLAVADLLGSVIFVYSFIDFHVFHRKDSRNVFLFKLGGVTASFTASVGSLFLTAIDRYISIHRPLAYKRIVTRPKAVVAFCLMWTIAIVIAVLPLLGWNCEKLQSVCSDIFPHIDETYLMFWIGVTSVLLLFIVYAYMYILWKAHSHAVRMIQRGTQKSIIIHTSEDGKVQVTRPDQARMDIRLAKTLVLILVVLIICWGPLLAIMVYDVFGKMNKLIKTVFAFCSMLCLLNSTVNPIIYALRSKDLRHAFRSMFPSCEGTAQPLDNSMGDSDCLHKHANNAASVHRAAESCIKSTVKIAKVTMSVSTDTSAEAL

In the case of `O=C(Nc1ccc(Cl)cc1)Nc1cccc(-c2cccc(N3CCCC3)n2)c1`, the EC50 was determined as 0.00384 µM on Cannabinoid receptor 1 [1] and 0.0708 µM on Cannabinoid receptor 1 [2].

The record behind these values is ChEMBL document CHEMBL3758125 (J Med Chem, 2016).
